According to patent US20260069596A1, “USE OF PLK1 INHIBITOR AS MONOTHERAPY AND IN COMBINATION WITH CETUXIMAB IN TREATING RAS WILD-TYPE COLORECTAL CANCER” (Cardiff Oncology, Inc., priority 2024, published 2026):

Tests used:
[1] = tested on: RAS^WT CRC patient-derived xenograft (PDX) models; assay: Example 1: antitumor activity in RAS^WT CRC PDX models; assay type: in vivo, nude mice
Description: Twenty RAS^WT CRC PDXs were selected and engrafted in nude mice. […] PDX models were chosen based on their sensitivity to cetuximab, resulting in a selection of 7 cetuximab-sensitive (CetuxS) and 13 cetuximab-resistant (CetuxR) PDXs, including 7 with intrinsic resistance and 6 with acquired-resistance. Tumor volume change from baseline (TVC) was calculated as 100%×(Vt−Vo)/Vo and tumor growth inhibition (TGI) as 100%×(TVCcontrol−TVCtreated)/TVCcontrol. Tumor regression was defined as TVCD18<0 and tumor stasis 0≤TVCD18<100.

[2] = tested on: RAS^WT colorectal cancer patient derived xenograft (PDX) models; assay: Example 2: antitumor activity in RAS^WT colorectal cancer PDX models; assay type: in vivo, mice
Description: Tumor volumes (TV) were measured twice a week, and % tumor volume change (TVC) from baseline was calculated as follows: (TVi/TV0−1)×100. Tumor stasis defined as TVC between 0 and 20%, and tumor regression as TVC less than 0% at last measurement. Results are presented as mean±SEM.
Provided in this example are methods for use of PLK1 inhibitor as monotherapy or combination with EGFR inhibitor for treatment of cancer.

Substance: cetuximab: monoclonal antibody targeting the epidermal growth factor receptor (EGFR) [reference compound]
- PDXs with tumor regression ([1]; 7 cetuximab-sensitive (CetuxS) PDXs, 20 mg/kg BIW, 18 days): all
- median tumor growth inhibition (TGI) ([1]; cetuximab-resistant models (13), IQR 16-61): 29%
- models resistant to treatment ([2]; 6 PDXs with acquired resistance to cetuximab): Four
- response of models to treatment ([2]; 7 PDXs sensitive to cetuximab, IP 20 mg/kg twice per week, 18-19 days): all models responded
